Measured affinities in a library of Ab-14 heavy chain variants

The measurements come from Engelhart et al. 2022 (doi:10.1038/s41597-022-01779-4) through the FLAb antibody collection.

Target: peptide PDVDLGDISGINAS, taken from heptad repeat 2 (HR2) of SARS-CoV-2 spike.

Parent scFv Ab-14: VH joined to VL by three GGGGS repeats. Changes lie in the heavy chain CDRs alone.
VH: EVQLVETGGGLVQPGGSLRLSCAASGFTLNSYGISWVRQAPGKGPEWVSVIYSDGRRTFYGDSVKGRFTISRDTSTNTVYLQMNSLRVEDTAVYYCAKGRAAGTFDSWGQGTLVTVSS
VL: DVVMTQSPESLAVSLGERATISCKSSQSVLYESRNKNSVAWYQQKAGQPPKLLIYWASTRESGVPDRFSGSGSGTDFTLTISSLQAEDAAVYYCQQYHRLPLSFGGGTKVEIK

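Library AAYL49 holds single substitutions and randomly drawn double and triple substitutions in the CDRs. The assay is AlphaSeq: two haploid yeast populations carry antibody and antigen on their surface. Mating (16 h, 30 °C) was followed by selection of diploids and sequencing of their barcodes. The ratio of observed to expected reads was calibrated, replicate by replicate, on BCL2-family standards whose Kd was known from biolayer interferometry. Each pool was mated in three replicate cultures.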

Each variant is given by its three heavy chain CDRs, as the data file delimits them; those of the parent are GFTLNSYGIS, VIYSDGRRTFYGDSVK, GRAAGTFDS.
Numbers give log10(Kd / nM), so 0 is 1 nM and 3 is 1 µM. Smaller is tighter.
A mean of the replicates is given; it leaves out those without a signal.
An entry "n.d." has no value in the source: the pair was not observed among the diploids in that replicate. This suggests poor binding but is not conclusive.

CDR-H1,CDR-H2,CDR-H3,log10 Kd (nM) by replicate,"mean, log10 nM",signal with controls
GFTLNSNGIS,VIYSDTRRTFYGKSVK,GRAAGTFDS,n.d. n.d. n.d.,n.d.,0 of 9
SFTLNSYGIS,AIYSDGRRTFYGDSVK,GRAAGMFDS,n.d. n.d. n.d.,n.d.,1 of 9 (4.29)
GWTLNSYGIS,VIYSDGRVTFYGDSVK,GRAAGTFDI,n.d. n.d. n.d.,n.d.,0 of 9
MFTLNSYGIS,VIYSDGRRTFYPDSFK,GRAAGTFDS,3.36 n.d. n.d.,3.36,3 of 9 (3.18)
GFTLNSYGIF,VIYSDGRRTFYGDSVK,ARAAGWFDS,n.d. n.d. n.d.,n.d.,0 of 9
GFTLNSYGIS,VIYFDGRRTFYGVSVK,GRAAITFDS,4.55 n.d. 5.45,5.00,0 of 9
GFTLNSYGIS,VIYSDGHRTFRGDSVK,GRAAGTFDS,n.d. 4.96 n.d.,4.96,0 of 9
GFTLNEYGIS,VIYSDGRRFFYGESVK,GRAAGTFDS,1.42 1.22 0.93,1.19,0 of 9
GFTLNSYGIS,VIYSDGRRTFYGDGWK,GRAAGTFDG,n.d. 3.37 n.d.,3.37,1 of 9 (4.05)
GFTLNSYGIS,VIYPDGRRTFYGDSVK,GLAAGTFMS,1.43 1.94 2.47,1.95,1 of 9 (4.25)
GFTLNSYGIS,VIYSDGRRTFYGPSVK,GRAPGTFDS,1.30 1.19 1.27,1.25,3 of 9 (4.59)
GFTLNSYGIS,VIYSDGRRTFQGDSVK,GRAAGTFDS,n.d. n.d. n.d.,n.d.,3 of 9 (3.27)
GFTLNSYGIS,VYYSDGRRTFYGDIVK,GRRAGTFDS,n.d. n.d. n.d.,n.d.,0 of 9
GFTLNWYGIS,VIYSDGRRTFYGQSVK,GRAAATFDS,n.d. n.d. n.d.,n.d.,1 of 9 (4.80)
GFTLNPYGIS,VICSDGRRTFYGDSVR,GRAAGTFDS,n.d. n.d. 4.10,4.10,0 of 9
GFTLNSYGIS,RIYSDGRRTFYGDQVK,GRAANTFDS,n.d. n.d. 3.24,3.24,0 of 9
GFTLNSYGIS,VFYSDGRRTFYGDSVK,NRFAGTFDS,n.d. 3.73 n.d.,3.73,0 of 9
GFTLNSYGIS,VIRSDGRRTNYGDQVK,GRAAGTFDS,n.d. n.d. 3.16,3.16,0 of 9
GFTLNSYGIS,VIYSDGRRTFYWDSYK,GRAAFTFDS,n.d. 4.86 n.d.,4.86,0 of 9
GFTLNSYGIS,VIYSDGRRSFYGDSVK,GYAAGTFFS,n.d. n.d. n.d.,n.d.,0 of 9
GFTLNSYGIS,VIYSDGIRTFYGDSVK,GRAAGTFDS,1.25 1.38 1.35,1.33,4 of 9 (5.65)
GFAGNSYGID,VIYSDGRRTFYGDSVK,GRAAGTFDS,0.48 0.79 0.86,0.71,2 of 9 (3.66)
QFTLNSYGIS,VIYFDGRRTFYGDSGK,GRAAGTFDS,n.d. 2.78 n.d.,2.78,0 of 9
GFTLNSYGIS,VIYSCGRRTFYGDSVH,GQAAGTFDS,n.d. 2.96 n.d.,2.96,3 of 9 (3.29)
GFTLNHYGIS,VIYSDGRRTFYGDSVK,GRHAGTLDS,n.d. n.d. n.d.,n.d.,0 of 9
GFAPNSYGIS,VIYSDGRRTFYGDSVK,YRAAGTFDS,n.d. n.d. n.d.,n.d.,1 of 9 (3.99)
GFTLNSYGIS,VIMSDGRRTFYGDSVK,GRAAGCFDD,n.d. n.d. n.d.,n.d.,0 of 9
GFTLNSRGIS,VIFSDGRRTFYGDSVK,GRAAGTWDS,n.d. n.d. n.d.,n.d.,3 of 9 (4.01)
GGTLNSPGIS,VIYSDGRRTFYGDSVK,GRAPGTFDS,n.d. n.d. n.d.,n.d.,2 of 9 (3.68)
GFTLHSYGIS,RIYSDGRRTFYGTSVK,GRAAGTFDS,n.d. n.d. n.d.,n.d.,0 of 9
GFTLNSYGIS,VIYSDGRRTFYGDSVW,GRAAIRFDS,n.d. n.d. n.d.,n.d.,0 of 9
GFTLNSYGIS,VIYSDGRRTNEGDTVK,GRAAGTFDS,n.d. n.d. n.d.,n.d.,2 of 9 (3.29)
GFTLNSYGIS,VIVSDGRATFYGDSVK,GRAAGTDDS,n.d. n.d. n.d.,n.d.,1 of 9 (3.88)
GFTLNSLGIE,VIYSDGRRTFYGDSDK,GRAAGTFDS,3.32 3.61 n.d.,3.47,1 of 9 (3.89)
GFTPNSYGIS,VIYSDGRRTYYGDSVK,GLAAGTFDS,3.68 3.50 n.d.,3.59,1 of 9 (5.21)
GFTLNSYGIS,VIFYDGRRTFYGDSVK,GLAAGTFDS,3.78 3.15 n.d.,3.46,3 of 9 (5.43)
GFTLNSYGIS,VIYSDGRFTFYGDSVK,GRAAGTFDT,n.d. 3.86 n.d.,3.86,0 of 9
GFTLNSYGIS,VIYSDGRRTFYGDSVK,GRKAGTSDS,2.25 2.14 2.17,2.19,6 of 9 (4.29)
GFTLNSYIIS,VIYSDGRRTFYGDSVK,GRAVGTFDS,n.d. n.d. n.d.,n.d.,0 of 9
GFTLNSYGIS,VIYSDGRRTFYGDSVK,GRKEGDFDS,n.d. n.d. 5.10,5.10,3 of 9 (3.87)
GFTLNSYGIS,VPYSDCRRTFPGDSVK,GRAAGTFDS,n.d. n.d. n.d.,n.d.,1 of 9 (3.22)
GFTYNSYGIS,VIYSDGRRTFYGDSVK,FRAAGTFDS,n.d. n.d. n.d.,n.d.,1 of 9 (3.54)
GFTLNGYGIS,VIYSDGRRTFYGDSHK,GRAAGTFDS,n.d. n.d. n.d.,n.d.,0 of 9

The closing 5 entries, repeated:

CDR-H1,CDR-H2,CDR-H3,log10 Kd (nM) by replicate,"mean, log10 nM",signal with controls
GFTLNSYIIS,VIYSDGRRTFYGDSVK,GRAVGTFDS,n.d. n.d. n.d.,n.d.,0 of 9
GFTLNSYGIS,VIYSDGRRTFYGDSVK,GRKEGDFDS,n.d. n.d. 5.10,5.10,3 of 9 (3.87)
GFTLNSYGIS,VPYSDCRRTFPGDSVK,GRAAGTFDS,n.d. n.d. n.d.,n.d.,1 of 9 (3.22)
GFTYNSYGIS,VIYSDGRRTFYGDSVK,FRAAGTFDS,n.d. n.d. n.d.,n.d.,1 of 9 (3.54)
GFTLNGYGIS,VIYSDGRRTFYGDSHK,GRAAGTFDS,n.d. n.d. n.d.,n.d.,0 of 9

Background: pairings of library AAYL49 with three empty control strains gave a value in 15% of cases (median 4.06, 5th percentile 2.83). Values in that range, when seen in few replicates, are hard to tell from nonspecific mating. The control count says in how many pairings with the empty strains this scFv gave a signal, with their mean in brackets.